Experimental data as given in article PMC7002685, “Inhibition of vascular calcification by inositol phosphates derivatized with ethylene glycol oligomers” (Nature Communications, 2020).

Columns and labels:
vascular calcification [1] = assay: Vitamin D3 (s.c.) + high-phosphate diet rat model of VC; format: in vivo; details: 30 mg/kg s.c. twice daily
Experimental: Male Sprague-Dawley rats were housed two per cage with free access to water and standard chow and submitted to a 12-h light/dark cycle. Compounds were administered and doses calculated using the salt form. […] Sham groups were injected with 0.9% NaCl instead of vitamin D3. […] Blood samples of 500 µL were collected on day 8 by fine needle from the tail vein and at sacrifice on day 12. […] Serum creatinine, calcium, and phosphorus were measured using standard colorimetric biochemistry analysis (Cobas Mira). Calcium tissue content was measured from dried carotids, whole left kidneys, and abdominal aortas by ICP-MS analysis. […] Images of the rat aortic trees were acquired on a Canon 5D MARKIII (Canon, Tokio, Japan) equipped with a 50 mm lens.
Calcium tissues’ contents were measured at the Central Environmental Laboratory (EPFL, Lausanne, Switzerland). Dry tissues (90 °C, overnight) were weighed and digested by aqua regia overnight at RT, followed by 2 h reflux, after which the solvent was completely evaporated with a steady flow of nitrogen gas. The dried samples were then reconstituted and homogenized with nitric acid. Calcium standards and samples were diluted with nitric acid. Absorbance was recorded using ICP-OES (Shimadzu ICPE-9000, Shimadzu). Two technical replicates were measured for each sample. […] Tissue concentrations of calcium were expressed as mg/g of dry tissue.

vascular calcification [2] = assay: Vitamin D3 (oral) + warfarin diet rat model of VC; details: 50 mg/kg

COCCOCCO[C@@H]1[C@@H](OP(=O)(O)O)[C@H](OCCOCCOC)[C@@H](OP(=O)(O)O)[C@@H](OP(=O)(O)O)[C@H]1OP(=O)(O)O [(OEG2)2-IP4, 4,6-Di-O-(methoxy-diethyleneglycol)-myo-inositol-1,2,3,5-tetrakis(phosphate)]
decrease in abdominal aorta calcification (vascular calcification [1]): not significant
Serum levels of ionized calcium on day 7 (vascular calcification [2]): 1700 ± 130 µM
